Laboratory results reported in patent US20250163065A1, “PYRROLOTRIAZINONE COMPOUND, PHARMACEUTICAL COMPOSITION COMPRISING SAME, PREPARATION METHOD THEREFOR, AND USE THEREOF” (SHANGHAITECH UNIVERSITY, priority 2022, published 2025).

By UniProt entry, the sequences of proteins in these tests, tags left out.
UniProt Q6DWJ6, whole entry, species assumed: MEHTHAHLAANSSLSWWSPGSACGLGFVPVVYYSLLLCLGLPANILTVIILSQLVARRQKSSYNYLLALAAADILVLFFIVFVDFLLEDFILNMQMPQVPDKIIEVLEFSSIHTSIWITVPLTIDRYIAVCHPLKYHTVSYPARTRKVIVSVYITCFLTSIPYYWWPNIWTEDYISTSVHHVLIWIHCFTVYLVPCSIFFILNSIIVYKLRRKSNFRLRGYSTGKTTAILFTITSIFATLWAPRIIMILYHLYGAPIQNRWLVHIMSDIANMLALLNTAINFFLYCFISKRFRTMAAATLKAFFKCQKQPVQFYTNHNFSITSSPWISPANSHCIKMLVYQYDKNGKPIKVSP

target: GPR139 (Homo sapiens (Human), UniProt Q6DWJ6); assay: Agonistic activity on GPR139, calcium flux detection assay (FLIPR) in transfected CHO-K1 cells; type: cell-based

| Emax [%] | Compound |
| --- | --- |
| 99 | C[C@H](NC(=O)Cn1ncc2cccn2c1=O)c1ccccc1 [Compound I-4, (S)-2-(4-oxopyrrolo[1,2-d][1,2,4]triazin-3(4H)yl)-N-(1-phenylethyl)acetamide] |
| 111 | Cc1ccc2cnn(CC(=O)N[C@@H](C)c3ccccc3)c(=O)n12 [Compound I-14, (S)-2-(6-methyl-4-oxopyrrolo[1,2-d][1,2,4]triazin-3(4H)yl)-N-(1-phenylethyl)acetamide] |
| 105 | Cc1ccc([C@H](C)NC(=O)Cn2ncc3c(C)cc(C)n3c2=O)cc1 [Compound I-18, (S)-2-(6,8-dimethyl-4-oxopyrrolo[1,2-d][1,2,4]triazin-3(4H)yl)-N-(1-(p-tolyl)ethyl)acetamide] |
| 104 | Cc1cc(C)n2c(=O)n(CC(=O)N[C@@H](C)c3ccc(Cl)cc3)ncc12 [Compound I-22, (S)—N-1-(4-chlorophenyl)ethyl-2-(6,8-dimethyl-4-oxopyrrolo[1,2-d][1,2,4]triazin-3(4H)yl)acetamide] |
